Test: Stability of analytes in whole blood samples
Format: in vitro ADME, rat
Details: n = 6

Substance: ecgonine
- Stability Bias (%) (Bench top (4 hours, room temperature), high concentration 190–320 ng/ml (1 µM)): 3.6%
- Stability Bias (%) (Bench top (4 hours, room temperature), low concentration 1.9–3.2 ng/ml (0.01 µM)): −1.5%
- Stability Bias (%) (Bench top (4 hours, room temperature), medium concentration 95–160 ng/ml (0.5 µM)): 7.6%
- Stability Bias (%) (Freeze-thaw (4 cycles), high concentration 190–320 ng/ml (1 µM)): 2.6%
- Stability Bias (%) (Freeze-thaw (4 cycles), low concentration 1.9–3.2 ng/ml (0.01 µM)): 3.5%
- Stability Bias (%) (Freeze-thaw (4 cycles), medium concentration 95–160 ng/ml (0.5 µM)): 10.2%
- Stability Bias (%) (Long-term (−70°C, 4 months), high concentration 190–320 ng/ml (1 µM)): 3.8%
- Stability Bias (%) (Long-term (−70°C, 4 months), low concentration 1.9–3.2 ng/ml (0.01 µM)): −4.9%
- Stability Bias (%) (Long-term (−70°C, 4 months), medium concentration 95–160 ng/ml (0.5 µM)): 10.7%

Reference: article PMC5196007 (Journal of pharmaceutical and biomedical analysis, 2016)
